The record followed here is patent US20130059324A1, “SYSTEMS AND METHODS FOR MECHANICALLY STRAINED CELL CULTURE” (THE UNIVERSITY OF KANSAS, priority 2010, published 2013).

For this experiment, the system named is A549 cells. In words: Prototype 96-well plate, viable cell count (Vi-Cell) with and without mechanical forces.

On to `COc1cccc2c1C(=O)c1c(O)c3c(c(O)c1C2=O)C[C@@](O)(C(=O)CO)C[C@@H]3O[C@H]1C[C@H](N)[C@H](O)[C@H](C)O1` [Doxorubicin], for which the “Viable Cell Count after 24 hours of drug exposure, With forces (Ef)” value is given as 11750.0 and the “Viable Cell Count after 24 hours of drug exposure, Without forces (E)” value is 30500.0.
